{
  "source": "patent US10696692B2",
  "about": "“Amido-benzyl sulfone and sulfoxide derivates” (Forma TM, LLC, priority 2012, dated 2020)",
  "tested_on": "A2780 cells",
  "test": "Assay 2: In-Vitro Cell Proliferation Assay (A2780 cells, SRB readout, 72 hours);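 note: viable cells counted via sulforhodamine B staining, absorbance at 570 nm, after 72 h exposure at 37 °C, DMSO 0.1% as control, media-only background subtracted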",
  "assay_type": "cell-based",
  "settings": "Homo sapiens, A2780, 72 h, read-out: Cell Proliferation (IC50)",
  "data": [
    {"smiles": "O=C(NCc1ccc(S(=O)(=O)N2CCN(C3COC3)CC2)cc1)c1cc2ccncc2o1", "note": "[Example 149, Furo[2,3-c]pyridine-2-carboxylic acid 4-(4-oxetan-3-yl-piperazine-lsulfonyl)-benzylamide]", "values": [
      {"measurement": "IC50", "value": 23, "unit": "nM"}
    ]}
  ]
}
